Results published in ChEMBL document CHEMBL4840335, “Rational Design and Development of Novel CDK9 Inhibitors for the Treatment of Acute Myeloid Leukemia” (J Med Chem, 2021).

Legend:
Homo sapiens [1] = species on record: Homo sapiens; assay: Selectivity ratio of IC50 for CDK6 (unknown origin) to IC50 for CDK9/Cyclin T1 (unknown origin)
Homo sapiens [2] = species on record: Homo sapiens; assay: Selectivity ratio of IC50 for CDK2 (unknown origin) to IC50 for CDK9/Cyclin T1 (unknown origin)
Homo sapiens [3] = species on record: Homo sapiens; assay: Selectivity ratio of IC50 for CDK7 (unknown origin) to IC50 for CDK9/Cyclin T1 (unknown origin)

Ratio IC50 (Homo sapiens [1]): 180 | Ratio IC50 (Homo sapiens [2]): 180 | Ratio IC50 (Homo sapiens [3]): 30
SMILES: Cc1n[nH]c2ccc(-c3cc(N[C@@H](CO)c4ccccc4)cnc3Cl)cc12
